Structures are written as SMILES. pKi: −log10 of the molar value.

The assay addresses GABA-A receptor; anion channel. It is filed as cell membranes, Bos taurus, Brain membranes.

Take `O=C1CN=C(c2ccccc2Cl)c2cc([N+](=O)[O-])ccc2N1` [CLONAZEPAM]: the negative-log Ki (pKi) (commonly the Ki on a negative log10 scale, so that one unit is a factor of ten) is 9.07.

For the origin of these results see ChEMBL document CHEMBL1131119, “N'-Phenylindol-3-ylglyoxylohydrazide derivatives: synthesis, structure-activity relationships, molecular modeling studies, and pharmacological action on brain benzodiazepine receptors” (J Med Chem, 1998).
